# Assay results as given in publication PMC4242290 (Nuclear Receptor Signaling, 2014).
# Protein sequences, listed by entry. Tags and fused reporters are not part of them.
# UniProt Q92731, whole entry: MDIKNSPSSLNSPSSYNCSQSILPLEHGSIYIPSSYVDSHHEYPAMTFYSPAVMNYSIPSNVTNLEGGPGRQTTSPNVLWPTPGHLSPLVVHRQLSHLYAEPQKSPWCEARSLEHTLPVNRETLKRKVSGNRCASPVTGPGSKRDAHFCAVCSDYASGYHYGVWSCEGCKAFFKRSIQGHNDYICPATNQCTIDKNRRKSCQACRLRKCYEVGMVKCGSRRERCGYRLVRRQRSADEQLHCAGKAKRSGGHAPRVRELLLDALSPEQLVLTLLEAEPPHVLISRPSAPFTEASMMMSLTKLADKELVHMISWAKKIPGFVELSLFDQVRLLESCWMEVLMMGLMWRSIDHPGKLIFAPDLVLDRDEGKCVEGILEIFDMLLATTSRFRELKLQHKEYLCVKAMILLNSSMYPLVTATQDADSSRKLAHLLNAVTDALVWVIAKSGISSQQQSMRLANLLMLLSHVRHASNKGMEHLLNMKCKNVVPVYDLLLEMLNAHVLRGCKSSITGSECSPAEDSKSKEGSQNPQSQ
# Molecular target: ERβ (Homo sapiens, UniProt Q92731)
# Type: binding
compound,measurement,value
"C[C@]12CC[C@@H]3c4ccc(O)cc4CC[C@H]3[C@@H]1CC[C@@H]2O [E2, estradiol, reference compound]","Binding to ERβ in FP (competition with fluorescein labeled E2), result in words",binders
